Molecules are shown by their SMILES.

The assay concerns mouse bone marrow cells. Conditions: 100 nM PGE2, 8 days, F4/80 and CD11c flow cytometry, FIG. 2.

Consider `C[C@H](NC(=O)c1c(Cc2ccc(F)cc2)sc2c1CCOC2)c1ccc(C(=O)O)cc1` [YJ114, (S)-4-(1-(2-(4-fluorobenzyl)-5,7-dihydro-4H-thieno[2,3-c]pyran-3-carboxamido)ethyl)benzoic Acid], for which the “Effect on generation of GM-CSF/IL-4-induced DC suppressed by PGE2” value is listed as “can abolish the inhibitory effect of PGE2 against the generation of DC”.

Values taken from patent US20210139497A1, “THIENOCYCLIC COMPOUND AND SYNTHESIS METHOD THEREFOR AND APPLICATION THEREOF” (SHANGHAI YUYAO BIOTECH LTD., priority 2017, published 2021).
